Assay [1] concerns the target Urokinase-type plasminogen activator [179-431,I214M,N322A,S371A] (Homo sapiens, UniProt P00749, I214M/N322A/S371A). Put plainly: Enzyme Assay and Determination of the Inhibition Constants.
Assay [2] concerns the target Urokinase-type plasminogen activator (Homo sapiens, UniProt P00749). Described as above.

SMILES strings stand for the structures.

Take `N=C(N)c1cc2cc(-c3cccc(-c4ccccc4)c3O)[nH]c2cc1F` [CA-12]: the values for the inhibitory constant (Ki) in assay [1] and in assay [2] were 1600 nM and 16 nM, respectively.

The values above are taken from BindingDB's records for doi:10.1016/j.jmb.2004.09.032 (Celera, 2004).
